# Literature values as cited in patent US12091408B2, “Store overload-induced calcium release inhibitors and methods for producing and using the same” (UTI Limited Partnership, priority 2013, dated 2024).
# System: skeletal muscle sarcoplasmic reticulum
# Settings: reported; cited from earlier work
smiles,measurement,value
Oc1ccc2[nH]c3ccc(Br)cc3c2c1Br,inhibition of Ca2+-induced Ca2+ release (CICR),inhibit Ca^2+-induced Ca^2+ release (CICR)
